The experiment relates to IL-10. Description: Immunoblot of IL-10 expression in placental tissue. To be noted: DMA rescued mice vs LPS alone, p<0.001. It counts as in vivo. On the procedure:
Frozen placentas and uteri from each group were allowed to thaw on ice. Each tissue was then transferred to a Kontes glass homogenizer (Fisher Scientific) and 0.3 ml ice cold lysis buffer was added. Samples were homogenized manually on ice for two minutes at intervals of 15 minutes. This process was continued for a period of two hours. The probe was thoroughly cleaned after each sample. The homogenate was transferred to 1 ml eppendorf tubes and centrifuged at 10,000 rpm for five minutes. The protein content of the supernatant was determined using Bradford assay with bovine serum albumin as the protein standard.
A volume corresponding to 30 μg protein of the supernatant was added to a tube containing 3 μl NuPAGE® LDS sample buffer (4×) and 1 μl NuPAGE® sample reducing agent (10×). The final volume was made up to 12 μl with distilled water, and then the samples were reduced at 95° C. for 5 minutes. Gel electrophoresis was carried out in an XCell SureLock mini cell apparatus using 12 well NuPAGE® Bis-Tris Gel for protein separation. […]
The PVDF membranes were wetted with Tris-buffered saline with 0.1% Tween-20 (TBS-T), pH 7.8 for ten minutes, and were then blocked with 5% skim milk powder in TBS-T solution for two hours. […] Chemifluorescence was detected by exposure to an autoradiography film. […] The protein content was quantified using Image J software (NIH). […]

Each structure is given as a SMILES string. “Also recorded” adds a separate entry of the source.

With `CC(=O)N(C)C` [DMA, N,N-dimethylacetamide], the “IL-10 expression in placental tissue” value is “increased significantly; also recorded: enhanced expression”.

Source of the values: patent US11717499B2 (priority 2011, dated 2023).
